Laboratory results from US20160083400A1, “TRICYCLIC GUANIDINE DERIVATIVE” (Sunovion Pharmaceuticals Inc., priority 2014, published 2016).

The chains behind the UniProt entries cited, without tags or fusion partners.
UniProt Q01064, whole entry: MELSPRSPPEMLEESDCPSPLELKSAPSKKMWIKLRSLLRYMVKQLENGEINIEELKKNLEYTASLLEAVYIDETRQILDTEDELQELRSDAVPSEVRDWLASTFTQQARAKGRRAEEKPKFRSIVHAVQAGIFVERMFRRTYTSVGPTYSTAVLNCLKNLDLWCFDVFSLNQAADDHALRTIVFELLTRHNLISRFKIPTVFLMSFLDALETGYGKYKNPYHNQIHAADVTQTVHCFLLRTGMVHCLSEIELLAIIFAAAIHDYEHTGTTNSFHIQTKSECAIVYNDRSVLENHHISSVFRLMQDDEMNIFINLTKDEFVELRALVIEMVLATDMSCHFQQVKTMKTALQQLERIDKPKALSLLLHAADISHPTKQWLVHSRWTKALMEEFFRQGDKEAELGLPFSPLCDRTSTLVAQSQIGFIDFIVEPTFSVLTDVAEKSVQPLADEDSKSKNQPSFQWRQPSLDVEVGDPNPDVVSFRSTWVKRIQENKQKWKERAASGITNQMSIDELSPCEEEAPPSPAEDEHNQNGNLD
UniProt P54750, whole entry: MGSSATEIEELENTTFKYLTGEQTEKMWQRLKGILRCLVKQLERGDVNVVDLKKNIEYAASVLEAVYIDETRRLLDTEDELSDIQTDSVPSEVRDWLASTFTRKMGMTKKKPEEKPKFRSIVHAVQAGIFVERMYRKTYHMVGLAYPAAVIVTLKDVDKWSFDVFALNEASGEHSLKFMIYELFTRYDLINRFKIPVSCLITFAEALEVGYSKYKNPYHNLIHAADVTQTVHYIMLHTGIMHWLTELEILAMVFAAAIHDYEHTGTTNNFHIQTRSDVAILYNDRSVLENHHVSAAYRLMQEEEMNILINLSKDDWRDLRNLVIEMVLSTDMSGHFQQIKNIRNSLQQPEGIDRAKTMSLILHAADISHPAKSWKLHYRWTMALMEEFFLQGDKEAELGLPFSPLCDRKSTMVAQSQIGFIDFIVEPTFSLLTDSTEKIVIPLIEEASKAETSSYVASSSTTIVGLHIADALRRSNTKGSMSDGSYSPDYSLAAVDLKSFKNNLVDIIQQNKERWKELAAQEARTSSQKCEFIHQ
UniProt Q14123, whole entry: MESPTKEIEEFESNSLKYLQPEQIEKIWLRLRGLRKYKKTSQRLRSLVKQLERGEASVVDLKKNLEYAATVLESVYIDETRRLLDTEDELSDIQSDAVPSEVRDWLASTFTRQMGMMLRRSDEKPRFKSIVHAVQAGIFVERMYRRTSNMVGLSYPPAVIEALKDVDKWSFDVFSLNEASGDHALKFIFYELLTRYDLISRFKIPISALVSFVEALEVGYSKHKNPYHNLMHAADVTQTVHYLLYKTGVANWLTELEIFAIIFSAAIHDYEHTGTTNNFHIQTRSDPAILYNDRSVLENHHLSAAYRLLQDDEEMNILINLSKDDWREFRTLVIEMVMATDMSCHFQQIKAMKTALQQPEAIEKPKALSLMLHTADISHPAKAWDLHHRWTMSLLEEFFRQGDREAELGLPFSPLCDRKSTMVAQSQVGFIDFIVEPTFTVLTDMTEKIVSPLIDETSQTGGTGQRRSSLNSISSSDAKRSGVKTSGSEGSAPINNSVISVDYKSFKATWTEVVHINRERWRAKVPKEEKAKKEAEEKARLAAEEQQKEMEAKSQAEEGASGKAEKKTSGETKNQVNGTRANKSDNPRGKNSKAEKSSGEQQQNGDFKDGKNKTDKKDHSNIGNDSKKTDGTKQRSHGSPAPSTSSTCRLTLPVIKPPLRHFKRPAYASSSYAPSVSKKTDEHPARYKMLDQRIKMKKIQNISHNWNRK

How the values were obtained:
PDE1B = PDE1B (Homo sapiens, UniProt Q01064); test: In vitro HTRF PDE1 inhibition assay (PDE1B); settings: read-out: IC50 (μM), in vitro PDE1B HTRF Assay, 100 nM cyclic GMP, calmodulin, 45 minutes at 37° C.
PDE1A (PDE 1A3) = PDE1A (PDE 1A3) (Homo sapiens, UniProt P54750); test: In vitro HTRF PDE1 inhibition assay (PDE1A); settings: read-out: IC50 (μM), in vitro PDE1A HTRF Assay; PDE1A (1A3); 100 nM cyclic GMP, calmodulin, 45 minutes at 37° C.
From the text: (§1) An exemplary procedure for the in vitro Homogenous Time Resolved Fluorescence (HTRF) assay, which can be used to determine the inhibitory action of compounds of the invention toward PDE1 or its isoforms, follows.
(§2) The HTRF PDE1 assay utilized the HTRF technology, which is based on the competition between unlabeled cyclic nucleotide and cyclic nucleotide labeled with XL665 for the binding to cyclic nucleotide-specific antibody labeled with cryptate. The HTRF signal is thus inversely proportional to the concentration of cyclic nucleotide being measured. Since phosphodiesterases break down cyclic nucleotides the HTRF signal was used to determine PDE activity.
(§3) The Cisbio cGMP HTRF assay kit (Cat no: 62GM2PEC) was utilized. Cyclic GMP was diluted to 200 nM in HTRF assay buffer (1 mM CaCl2, 10 mM MgCl2, 10 mM Tris-HCl, 0.1% BSA, pH7.4). 10 μl of compound or DMSO was diluted in 200 nM cyclic GMP solution and added to wells of a 96 well white plate to give 100 nM cyclic GMP in 1% DMSO final concentration. PDE (1A3, 1B or 1C) was diluted to 2× working concentration in HTRF assay buffer with 4 μg/ml Calmodulin, and 10 μl was added to initiate the reaction. The plate was then incubated for 45 minutes at 37° C. d2-Labelled cyclic GMP and anti-cGMP cryptate were diluted in 50 mM phosphate buffer, 0.8M KF, 1% Triton X100, 0.2% BSA, pH7.0. Following incubation 10 μl d2-cGMP, then 10 μl anti cGMP cryptate were added to each well and the plate was incubated for 45 minutes at rt. The plate was then read on Perkin Elmer Victor at 2 different FRET readings ex/emm 340 nm/665 nm and 340 nm/615 nm.
(§4) Compounds having an IC50 of <1 μM, are denoted as +++. Compounds having an IC50 of 1-10 μM, are denoted as ++. Compounds having an IC50 of 10-100 μM, are denoted as +.

PDE1C = PDE1C (Homo sapiens, UniProt Q14123); test: In vitro HTRF PDE1 inhibition assay (PDE1C)
From the text: as §1, §2, §3, §4

| SMILES | IC50 (PDE1B) | IC50 (PDE1A (PDE 1A3)) | IC50 (PDE1C) |
| --- | --- | --- | --- |
| O=c1c2cnn(C3CCCC3)c2nc2n1CCC(c1ccccc1)N2 (stereo not drawn) | < 1 µM |  |  |
| COc1ccc([C@@H]2Cn3c(nn4c(C(C)C)ncc4c3=O)N2)nc1 | 10 to 100 µM |  |  |
| COc1ccc([C@H]2Cn3c(nn4c(C(C)C)ncc4c3=O)N2)nc1 | < 1 µM |  |  |
| COc1ccc(C2Cn3c(nc4c(cnn4C4CCOCC4)c3=O)N2)cc1 (single isomer, unassigned) [24] | < 1 µM |  |  |
| CC(C)(C)c1ccc(C2Cn3c(nn4c(C5CCOCC5)ncc4c3=O)N2)cc1 (single isomer, unassigned) | < 1 µM |  |  |
| O=c1c2cnc(C3CCOCC3)n2nc2n1CC(c1ccc(F)cc1)N2 (stereo not drawn) | < 1 µM |  |  |
| O=c1c2cnc(C3CCOCC3)n2nc2n1CC(c1ccc(Cl)cc1F)N2 (single isomer, unassigned) | < 1 µM | < 1 µM | < 1 µM |
| COc1ccc([C@H]2Cn3c(nn4c(C(C)C)ncc4c3=O)N2)cn1 | < 1 µM |  |  |
| O=c1c2cnc(C3CCOCC3)n2nc2n1CC(c1ccc(Cl)cc1C(F)(F)F)N2 (single isomer, unassigned) | 10 to 100 µM |  |  |
| CO[C@@H](C)c1ncc2c(=O)n3c(nn12)NC(c1ccc(C(C)C)cn1)C3 (single isomer, unassigned) [223] | 10 to 100 µM |  |  |
| O=c1c2cnc(C3CCOCC3)n2nc2n1CC1(CCc3ccccc31)N2 (stereo not drawn) | 1 to 10 µM |  |  |
| CCCc1ncc2c(=O)n3c(nn12)NC(c1ccc(Cl)cc1)C3 (stereo not drawn) | < 1 µM |  |  |

More lines, now with the values ahead:

| IC50 (PDE1B) | IC50 (PDE1A (PDE 1A3)) | IC50 (PDE1C) | SMILES |
| --- | --- | --- | --- |
| < 1 µM | < 1 µM | < 1 µM | CC(C)c1ncc2c(=O)n3c(nn12)N[C@@H](c1ccc(C(C)(C)C)nc1)C3 |
| < 1 µM | < 1 µM | < 1 µM | Cc1ccc(C2Cn3c(nn4c(C5CCOCC5)ncc4c3=O)N2)c(F)c1 (single isomer, unassigned) |
| < 1 µM | < 1 µM | < 1 µM | CC(C)c1nccc2c(=O)n3c(nc12)NCCC3c1ccc(Cl)cc1 (stereo not drawn) |
| < 1 µM | < 1 µM | < 1 µM | CC(C)c1ccc(C2Cn3c(nn4c(C(C)C)ncc4c3=O)N2)nc1 (single isomer, unassigned) [202] |
| < 1 µM | < 1 µM | 1 to 10 µM | CC(C)c1ncc2c(=O)n3c(nn12)NC(c1ccc(Cl)cn1)C3 (stereo not drawn) |
| < 1 µM | < 1 µM | 1 to 10 µM | CC(C)n1ncc2c(=O)n3c(nc21)NC(c1ccc(Cl)cc1)CC3 (stereo not drawn) |
| < 1 µM |  |  | N#Cc1ccc(C2Cn3c(nn4c(C5CCOCC5)ncc4c3=O)N2)cc1 (stereo not drawn) |
